Test results: ChEMBL document CHEMBL4476868, “Benzimidazole derivatives and uses thereof” (2017)

Protein sequences, listed by entry. Tags and fused reporters are not part of them.
UniProt Q9NR19, whole entry: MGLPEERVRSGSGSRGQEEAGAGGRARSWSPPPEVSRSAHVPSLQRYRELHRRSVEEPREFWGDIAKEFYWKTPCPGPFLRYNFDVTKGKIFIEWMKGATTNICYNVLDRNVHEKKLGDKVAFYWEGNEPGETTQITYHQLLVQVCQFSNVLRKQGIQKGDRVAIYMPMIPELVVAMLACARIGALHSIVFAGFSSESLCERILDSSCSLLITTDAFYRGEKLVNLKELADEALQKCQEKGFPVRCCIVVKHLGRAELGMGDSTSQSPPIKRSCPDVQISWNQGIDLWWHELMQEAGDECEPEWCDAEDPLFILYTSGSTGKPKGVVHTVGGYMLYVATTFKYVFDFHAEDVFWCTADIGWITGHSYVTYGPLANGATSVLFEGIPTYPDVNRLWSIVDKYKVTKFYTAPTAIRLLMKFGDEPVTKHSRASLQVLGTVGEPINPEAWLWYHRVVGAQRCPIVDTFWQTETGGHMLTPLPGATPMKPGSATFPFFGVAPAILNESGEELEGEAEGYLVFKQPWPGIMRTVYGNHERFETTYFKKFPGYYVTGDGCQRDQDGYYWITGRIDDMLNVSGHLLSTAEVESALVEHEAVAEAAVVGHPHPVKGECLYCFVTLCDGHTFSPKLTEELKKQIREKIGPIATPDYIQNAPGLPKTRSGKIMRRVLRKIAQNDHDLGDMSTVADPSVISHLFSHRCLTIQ

molecular target: Acetyl-coenzyme A synthetase, cytoplasmic (Homo sapiens, UniProt Q9NR19); assay: Inhibition of N-terminal 6x-histidine tagged human ACSS2 expressed in insect cells assessed as reduction in pyrophosphate production using CoA and ATP incubated for 30 mins by pyrophosphatase coupled enzymatic assay

IC50 [nM] | SMILES
< 50 | CCn1cc(NC(=O)c2ccc3nc(C(O)(c4ccccc4)c4ccccc4)n(CC)c3c2)cn1
< 50 | CCn1c(C(O)(c2ccccc2)c2ccccc2)nc2ccc(C(=O)NCC(O)C(F)F)cc21 (stereo not drawn)
< 50 | Cn1c(C(O)(c2ccccc2)c2ccccc2)nc2ccc(C(=O)NCCF)cc21
< 50 | CCn1c(C(O)(c2ccccc2)c2ccccc2)nc2ccc(C(F)(F)CO)cc21
< 50 | CCn1c(C(O)(c2ccccc2)c2ncccc2C)nc2ccc(CCCO)cc21 (stereo not drawn)
< 50 | CCn1c(C(O)(c2ccccc2)c2ccccc2)nc2ccc(C(=O)NC[C@@H](C)O)c(F)c21
< 50 | Cc1cccnc1C(O)(c1ccc(F)cc1)c1nc2ccc(S(N)(=O)=O)cc2n1C (stereo not drawn)
< 50 | CCn1c(C(O)(c2ccccc2)c2ccccc2F)nc2ccc(C(=O)NC[C@@H](C)O)cc21 (stereo partly drawn)
< 50 | COc1cc(NC(=O)c2ccc3nc(C(c4ccccc4)c4ccccc4)[nH]c3c2)cc(OC)c1OC
< 50 | CCn1c(C(O)(c2ccccc2)c2ccccc2)nc2ccc(C(=O)Nc3cccc(OC)c3)cc21
50 to 249 | CCn1c(C(O)(c2ccccc2)c2ccccc2)nc2ccc(C)cc21
< 50 | CCn1cc(NC(=O)c2ccc3nc(C(O)(c4ccccc4)c4ccccc4)n(CCO)c3c2)cn1
< 50 | CCn1c(C(O)(c2ccccc2)c2ccccc2)nc2ccc(C(=O)Nc3ccn(CC(C)C)n3)cc21
< 50 | CCn1c(C(O)(c2ccccc2)c2ccccc2)nc2ccc(C(=O)NCc3ccccc3)cc21
< 50 | CCn1c(C(O)(c2ccccc2)c2ccccc2)nc2ccc(C(=O)NOC)cc21
< 50 | CCn1c(C(O)(c2ccccc2)c2ccccc2)nc2ccc(C(=O)Nc3ccn(CCO)n3)cc21
< 50 | CCn1c(C(O)(c2ccccc2)c2ccccc2)nc2ccc(C(=O)NCCF)cc21
< 50 | CCn1c(C(O)(c2ccccc2)c2ccccc2)nc2ccc(C(=O)NCC(C)(F)F)cc21
< 50 | CCn1c(C(O)(c2ccccc2)c2ccccc2)nc2ccc(NC(=O)c3cccc(OC)c3)cc21
< 50 | CCn1c(C(O)(c2ccccc2)c2ccccc2)nc2ccc(C(=O)Nc3ccn(C4CC4)n3)cc21
< 50 | CCn1c(C(O)(c2ccccc2)c2ccccc2)nc2ccc(C(=O)NC[C@H](O)CF)cc21
< 50 | CCn1c(C(O)(c2ccccc2)c2ccccc2)nc2ccc(NC(=O)CCOC)cc21
< 50 | CCn1c(C(O)(c2ccccc2)c2ccccc2)nc2ccc(C(=O)NCC(F)F)cc21

IC50 [nM] | SMILES
< 50 | CCn1c(C(O)(c2ccccc2F)c2ccccc2F)nc2ccc(C(=O)NC[C@@H](C)O)cc21
< 50 | NS(=O)(=O)c1ccc2nc(C(O)(c3ccccc3F)c3ccccc3F)n(CCO)c2c1
< 50 | CCCC(O)CNC(=O)c1ccc2nc(C(O)(c3ccc(F)cc3)c3ccc(F)cc3)n(CC)c2c1 (stereo not drawn)
< 50 | Cn1c(C(O)(c2ccc(F)cc2)c2ncccc2F)nc2ccc(S(N)(=O)=O)cc21 (stereo not drawn)
< 50 | CCn1c(C(O)(c2ccccc2)c2ccccc2)nc2ccc(CCC(C)O)cc21 (stereo not drawn)
< 50 | CCN1CC(NC(=O)c2ccc3nc(C(O)(c4ccccc4)c4ccccc4)n(CC)c3c2)CCC1=O (stereo not drawn)
< 50 | CCn1c(C(O)(c2ccccc2)c2ccccc2)nc2ccc(C(=O)N[C@@H]3CCC[C@H](O)C3)cc21
< 50 | CCn1cnc(NC(=O)c2ccc3nc(C(O)(c4ccccc4F)c4ccccc4F)n(CC)c3c2)n1
< 50 | CCn1c(C(O)(c2ccccc2F)c2ccccc2F)nc2ccc(C(=O)NC)cc21
< 50 | CCc1cccc(NC(=O)c2ccc3nc(C(O)(c4ccccc4)c4ccccc4)n(CC)c3c2)c1
< 50 | CCn1c(C(O)(c2ccccc2)c2ccccc2)nc2ccc(CCCO)cc21
< 50 | CCn1c(C(O)(c2ccccc2)c2ccccc2)nc2ccc(C(=O)Nc3ccn(CCOC)n3)cc21
< 50 | CCn1c(C(O)(c2ccccc2)c2ccccc2)nc2ccc(C(=O)Nc3cncc(OC)c3)cc21
< 50 | CCn1c(C(O)(c2ccccc2)c2ccccc2)nc2ccc(C(=O)Nc3cc(OC)cc(OC)c3)cc21
< 50 | CCn1c(C(O)(c2ccccc2)c2ncccc2F)nc2ccc(CCCO)cc21 (stereo not drawn)
< 50 | CCn1c(C(O)(c2ccccc2)c2ccccc2)nc2ccc(C(=O)NCCNC(C)=O)cc21
< 50 | Cn1c(C(O)(c2ccccc2)c2ccccc2)nc2ccc(C(=O)NCC(F)F)cc21
< 50 | CCn1c(C(O)(c2ccccc2)c2ccccc2)nc2ccc(CNC(=O)OC)cc21
< 50 | CCn1c(C(O)(c2ccccc2)c2ccccc2)nc2ccc(C(=O)NC[C@H](O)COC)cc21
< 50 | Cn1c(C(O)(c2ccccc2F)c2ccccc2F)nc2ccc(C(=O)NCC(F)F)cc21
< 50 | CCn1c(C(O)(c2ccc(F)cc2)c2ncccc2C)nc2ccc(CCCO)cc21 (stereo not drawn)
< 50 | CCn1cc(NC(=O)c2ccc3nc(C(O)(c4ccccc4F)c4ccccc4F)n(CCO)c3c2)cn1
< 50 | CCn1c(C(O)(c2ccccc2)c2ccccc2)nc2ccc(C(=O)Nc3nc(C)c[nH]3)cc21

IC50 [nM] | SMILES
< 50 | CCn1c(C(O)(c2ccccc2)c2ccccc2)nc2ccc(C(O)C(F)(F)CO)cc21 (stereo not drawn)
< 50 | NS(=O)(=O)c1ccc2nc(C(O)(c3ccccc3)c3ccccc3)n(CCO)c2c1
< 50 | OCCCc1ccc2nc(C(O)(c3ccccc3)c3ccccc3)n(CCO)c2c1
50 to 249 | CCn1c(C(O)(c2ccccc2)c2ccccc2)nc2ccc(C(=O)O)cc21
< 50 | CCn1c(C(O)(c2ccccc2)c2ccccc2)nc2ccc(C(=O)Nc3ccn(CC(C)O)n3)cc21 (stereo not drawn)
< 50 | CCn1c(C(O)(c2ccccc2)c2ccccc2)nc2ccc(NC(=O)CC#N)cc21
< 50 | CCCC(O)CNC(=O)c1ccc2nc(C(O)(c3ccc(F)cc3)c3ccc(F)cc3)n(C)c2c1 (stereo not drawn)
< 50 | Cn1c(C(O)(c2ccccc2F)c2ccccc2F)nc2ccc(C(=O)NCCF)cc21
< 50 | CCn1c(C(O)(c2ccccc2)c2ccccc2)nc2ccc(CC(F)(F)CO)cc21
< 50 | CCn1c(C(O)(c2ccccc2)c2ccccc2)nc2ccc(C(=O)Nc3cnn(CC(C)O)c3)cc21 (stereo not drawn)
< 50 | CCn1c(C(O)(c2ccccc2)c2ccccc2)nc2ccc(NC(=O)CO)cc21
< 50 | CCN1C[C@@H](NC(=O)c2ccc3nc(C(O)(c4ccccc4)c4ccccc4)n(C)c3c2)CCC1=O
< 50 | CCn1c(C(O)(c2ccccc2)c2ccccc2)nc2ccc(C(O)CCO)cc21 (stereo not drawn)
< 50 | CCn1cccc(NC(=O)c2ccc3nc(C(O)(c4ccccc4)c4ccccc4)n(CC)c3c2)c1=O
< 50 | CCn1c(C(O)(c2ccccc2)c2ccccc2)nc2ccc(C(F)(F)C(N)=O)cc21
< 50 | CCn1c(C(O)(c2ccccc2)c2ccccc2)nc2ccc(S(C)(=O)=O)cc21
< 50 | CCn1ccc(NC(=O)c2ccc3nc(C(O)(c4ccccc4F)c4ccccc4F)n(CC)c3c2)n1
< 50 | NS(=O)(=O)c1cc2c(cc1F)nc(C(O)(c1ccccc1F)c1ccccc1F)n2CCO
< 50 | CCn1c(C(O)(c2ccccc2)c2ccccc2)nc2ccc(C(=O)NCC3(O)CC3)cc21
< 50 | CCNS(=O)(=O)c1ccc2nc(C(O)(c3ccccc3)c3ccccc3)n(CC)c2c1
< 50 | CCn1cc(NC(=O)c2ccc3nc(C(O)(c4ccccc4)c4ccccc4)n(CC)c3c2)ccc1=O
< 50 | CCN1CC(NC(=O)c2ccc3nc(C(O)(c4ccccc4)c4ccccc4)n(CCO)c3c2)CCC1=O (stereo not drawn)
